In publication PMC7463734, “Identification and Validation of an Aspergillus nidulans Secondary Metabolite Derivative as an Inhibitor of the Musashi-RNA Interaction” (Cancers, 2020) one finds IC50 and Ki data, which are given here for five compounds.

Chains of the proteins cited; added tags and fusions are not shown. Residues count along the entry.
UniProt O43347, 20-107 limits assumed: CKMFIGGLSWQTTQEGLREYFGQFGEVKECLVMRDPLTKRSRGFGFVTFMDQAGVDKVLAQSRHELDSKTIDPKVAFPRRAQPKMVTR

The experiment has as its target RBD1 of MSI1 (Homo sapiens, UniProt O43347). Kind of experiment: FP dose-response (competition) disrupting RBD1-Numb^FITC complex. The experiment is classed as binding. Conditions: for IC50: FP dose-response, RBD1 of MSI1; for Ki: calculated based on the Kd and the dose-response curves. How it is done:
To further examine the initial hits, we tested compounds with similar scaffolds shown in Figure 3 and Figure S1 in an FP dose-response assay. […] We thus focused our further validation studies on Aza-9.
Figure 4 FP dose-response validation compounds binding to RBD1 of MSI1. Ki values were calculated based on the Kd and the dose-response curves. TEXT PRINTED IN THE PICTURE: Aza-7: IC50 [μM]: 7.1; Ki [μM]: 3.0 | Aza-8: IC50 [μM]: 4.0; Ki [μM]: 1.7 | Aza-9: IC50 [μM]: 2.8; Ki [μM]: 1.2 | Aza-10: IC50 [μM]: 7.5; Ki [μM]: 3.2 | Aza-11: IC50 [μM]: 3.9; Ki [μM]: 1.7 | Aza-12: IC50 [μM]: 6.3; Ki [μM]: 2.7 | Aza-13: IC50 [μM]: 4.5; Ki [μM]: 1.9 | Aza-14: IC50 [μM]: 11.6; Ki [μM]: 5.0 | Aza-15: IC50 [μM]: >20 | Aza-16: IC50 [μM]: 6.8; Ki [μM]: 2.9 | Aza-17: IC50 [μM]: >20
pET21a-GB1-RBD1 (MSI1-RBD1) plasmids encoding the Homo sapiens RNA binding domain 1 (RBD1, residues 20-107) of MSI1 were constructed with Mus musculus cDNAs under T7 promoter. MSI1-RBD1 proteins were expressed in Escherichia coli and purified, as previously described. Protein concentrations were determined using the Bradford assay (Bio-Rad, Hercules, CA, USA). Purification of MSI2-RBD1 protein was carried out according to the previous publication.
FP, SPR and NMR assays were carried out according to the previous publication. For computer modeling of Aza-9 to MSI1/2, the AutoDock4.2.6 program was used for predicting the binding mode. The NMR structure of MSI1-RBD1 in complex with RNA (PDB: 2RS2) and the NMR structure of apo MSI2-RBD1 (PDB: 6C8U) were used as the receptor structure. The MSI1 RBD1–RNA interface and corresponding site in MSI2-RBD1 was used as the starting point for the docking calculations. The initial three-dimensional model of the Aza-9 compound was generated using the BABEL program and was used as starting coordinates to define the ligand structure. For docking, a grid box of size 40 × 44 × 56 A with 0.375 A spacing was centered at residue F23 in MSI1-RBD1 (or F24 in MSI2-RBD1). A total of 200 docking runs were carried out using the Lamarckian genetic algorithm. The docked conformation with the lowest energy was selected as the final conformation.

As to `CC[C@H](C)/C=C(C)/C=C/C1=CC2=C(I)C(=O)C(C)(O)C(=O)C2=CO1` (some centres unmarked), the IC50 stood at 11.6 µM and the inhibitory constant (Ki) was 5 µM. In the same order, the values of `CCOC(=O)C=C1C2=COC(/C=C/C(C)=C/[C@@H](C)CC)=CC2=C(Br)C(=O)C1(C)O` (some centres unmarked) are 6.8 µM and 2.9 µM.

Regarding `CC[C@H](C)/C=C(C)/C=C/C1=CC2=C(I)C(=O)C(C)(OC(C)=O)C(=O)C2=CO1` (some centres unmarked), the IC50 came out at 7.5 µM and the inhibition constant (Ki) was 3.2 µM.

As for `CCOC(=O)C=C1C2=COC(/C=C/C(C)=C/[C@@H](C)CC)=CC2=CC(=O)C1(C)O` (some centres unmarked), the 50% inhibitory concentration (IC50) was above 20 µM. On the same count and under the same terms, to `CCOC(=O)C=C1C2=COC(/C=C/C(C)=C/[C@@H](C)CC)=CC2=C(I)C(=O)C1(C)O` (some centres unmarked) belongs above 20 µM.

As a reminder, the IC50 is the concentration at which inhibition is half-maximal. The term Ki denotes the equilibrium dissociation constant of an inhibitor or competing ligand from its target.
